The test system of one assay is mGlu1–3,5,6–8. Particulars: against other mGlu subtypes (mGlu1–3,5,6–8).
The test system of another assay is mGlu1,2,3. Particulars: 10 µM compound with full glutamate CRC; Inactive = no left-shift.

Like-named read-outs stand apart in the source and are kept apart here.

For the molecule `O=C(Nc1ccc(N2S(=O)(=O)c3ccccc3S2(=O)=O)cc1)c1ccccn1` [8d, N-(4-(1,1,3,3-Tetraoxidobenzo[d][1,3,2]dithiazol-2-yl)phenyl)picolinamide], the mGlu selectivity result with mGlu1–3,5,6–8 is listed as “displayed selectivity”; in the assay on mGlu1–3,5,6–8 (listed as C00004), “selective”.
With `O=C(Nc1ccc(N2C(=O)CC(c3ccccc3)C2=O)c(Cl)c1)c1ccccn1` (stereo not drawn) [15k, N-(3-Chloro-4-(2,5-dioxo-3-phenylpyrrolidin-1-yl)phenyl)picolinamide], in the assay on mGlu1,2,3, the “mGlu Selectivity mGlu1,2,3” value is listed as “Inactive ^b”.

Source of the values: paper PMC3226828 (Journal of medicinal chemistry, 2011).
